Test results published in patent publication US20070043122A1, “Use of 2,2,3,3, tetramethylcyclopropane carboxylic acid derivatives for treating psychiatric disorders” (YISSUM RESEARCH DEVELOPMENT CO. OF THE HEBREW UNIVERSITY OF …, priority 2003, published 2007).

Experiments:
human brain MIP synthase = target: T1, human brain MIP synthase (Homo sapiens, UniProt Q9NPH2); assay: Human brain MIP synthase activity in postmortem prefrontal cortex homogenate; type: biochemical
T1 construct: supernatant fraction obtained after sonication; from tissue; host or cells: postmortem human prefrontal cortex, 9,000 x g supernatant of sonicated homogenate
T1 sequence (Q9NPH2 1-558): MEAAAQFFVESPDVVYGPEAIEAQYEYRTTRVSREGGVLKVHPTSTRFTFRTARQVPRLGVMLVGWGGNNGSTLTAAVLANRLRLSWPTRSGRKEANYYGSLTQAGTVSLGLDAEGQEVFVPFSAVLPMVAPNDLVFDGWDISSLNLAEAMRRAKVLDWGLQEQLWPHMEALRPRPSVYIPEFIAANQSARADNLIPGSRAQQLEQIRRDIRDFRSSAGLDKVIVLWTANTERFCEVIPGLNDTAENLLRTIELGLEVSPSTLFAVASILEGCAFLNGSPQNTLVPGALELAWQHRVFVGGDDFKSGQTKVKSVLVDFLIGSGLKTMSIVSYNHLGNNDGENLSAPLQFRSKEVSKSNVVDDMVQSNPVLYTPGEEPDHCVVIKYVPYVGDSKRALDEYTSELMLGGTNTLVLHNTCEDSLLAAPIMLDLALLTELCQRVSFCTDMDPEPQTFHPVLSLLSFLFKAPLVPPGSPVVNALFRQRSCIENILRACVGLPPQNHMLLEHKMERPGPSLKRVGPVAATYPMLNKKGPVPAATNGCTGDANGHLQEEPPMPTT
Procedure: Human brain MIP synthase activity. Five μl of the supernatant fraction obtained after sonication (Ultrasonic Processor, Newtown, Conn., 15 sec at 0.1 output watts at 4° C.) and centrifugation for 20 min at 9,000×g at 4° C. of postmortem human prefrontal cortex (1 mg wet weight in 0.5 ml of 50 mM Tris HCl, pH 7.4) were added to 20 μl reaction mixture containing 4 mM D-glucose-6-phosphate, 1.25 μCi D-glucose-6-phosphate [^14C], 1.6 mM NAD^+, 0.45 mM KCl, 5.4 mM MgCl2 and 0.9 mM Tris HCl, pH 7.6, with or without 5 mU IMPase (Sigma, St. Louis). Incubation with or without various drugs concentrations (table 2 and table 3) was carried out for 3 hours (within the linear range) at 37° C. The reaction was stopped by adding 50 μl cold double distilled water (ddH20). Seventy out of the 80 μl were added to test tubes containing 1.25 g strong basic anion resin (Amberjet 4200, Rohm and Haas, Philadelphia) in 1 ml ddH2O. The mixtures were vortexed for 10 min, then centrifugated for 10 min at 10,000×g at room temperature, and 200 μl supernatant taken for ^14C counting (Liquid Scintillation Counter, Kontron, Basel). The enzymatic activity was calculated by subtracting values without IMPase from the measures with IMPase. The measurements were carried out in triplicate.
Table 2 details the drugs and their concentrations compared with their therapeutic concentrations, studied for possible inhibition of human brain MIP synthase activity. Each drug was tested twice, each experiment in triplicate.

[1] = in vivo; cited from earlier work

Compound | inhibited MIP synthase activity (which of the other psychotropic drugs) (human brain MIP synthase; at concentrations 1.5 times greater than their upper therapeutic range (concentrations in Table 2)) | Km of MIP synthase for glucose-6-phosphate in the presence of VPA (human brain MIP synthase; 0.525 mM VPA, without VPA 0.625 mM) | Vmax of MIP synthase in the presence of VPA (human brain MIP synthase; 0.525 mM VPA, without VPA 0.02) [nmoles/min×mg protein] | mode of inhibition of MIP synthase (human brain MIP synthase; glucose-6-phosphate 0.48-2.48 mM, 0.525 mM VPA, Lineweaver-Burk plot) | drug levels in brain relative to blood levels [1] | half-life time in mice relative to humans [1]
Nc1nnc(-c2cccc(Cl)c2Cl)c(N)n1 [lamotrigine] | None | – | – | – | – | –
CCCC(CCC)C(=O)O [VPA, valproic acid] | – | does not change | 0.006 | noncompetitive | about 20% | ten times higher
